Data published in patent US20230322745A1, “FUSED TRICYCLIC DERIVATIVE AND PHARMACEUTICAL APPLICATION THEREOF” (CHIA TAI TIANQING PHARMACEUTICAL GROUP CO., LTD., priority 2020, published 2023).

The chains behind the UniProt entries cited, without tags or fusion partners.
UniProt P20309, whole entry, looked up: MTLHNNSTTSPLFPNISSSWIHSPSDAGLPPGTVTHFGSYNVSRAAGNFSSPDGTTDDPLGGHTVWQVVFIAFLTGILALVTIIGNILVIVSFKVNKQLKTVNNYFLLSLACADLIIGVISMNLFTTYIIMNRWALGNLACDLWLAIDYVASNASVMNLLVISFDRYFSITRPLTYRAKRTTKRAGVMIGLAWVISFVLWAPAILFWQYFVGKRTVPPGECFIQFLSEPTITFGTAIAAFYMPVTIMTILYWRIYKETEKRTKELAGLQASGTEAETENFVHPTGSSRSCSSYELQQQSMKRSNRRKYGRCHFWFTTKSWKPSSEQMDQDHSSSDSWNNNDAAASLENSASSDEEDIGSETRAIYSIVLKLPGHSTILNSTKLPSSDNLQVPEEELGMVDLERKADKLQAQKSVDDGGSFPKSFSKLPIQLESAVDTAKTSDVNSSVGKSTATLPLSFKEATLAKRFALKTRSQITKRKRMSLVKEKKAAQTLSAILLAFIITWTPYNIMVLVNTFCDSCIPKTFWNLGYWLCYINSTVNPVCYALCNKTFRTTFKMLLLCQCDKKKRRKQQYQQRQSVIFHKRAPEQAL

Molecular target: M3 receptor (Homo sapiens (Human), UniProt P20309)
Assay: M3 receptor affinity test (3H-NMS competition)
Type: binding
Conditions: read-out: IC50, activity against the M3 receptor in vitro; 0.2 nM 3H-NMS, M3 receptor membrane protein, 2 h at room temperature
Method: M3 receptor is a G protein-coupled receptor. In this experiment, the activity of test compounds against the M3 receptor in vitro was assayed by the competition of radioisotope labeled NMS and non-isotope labeled test compounds for an M3 binding site.
The experiment was performed by a radioisotope affinity assay. The M3 receptor membrane protein was prepared at 10 μg/mL by Biology Department of WuXi AppTec, and compounds were serially diluted in a 2.5-fold gradient in DMSO to obtain 10 concentrations. Radioisotope 3H-NMS was prepared at 0.2 nM in an assay buffer (10 mM HEPES, 1 mM MgCl2, pH 7.40). In formal testing, the experimental system comprising 1 […], 100 μL of M3 receptor membrane protein and 100 μL of radioisotope was shaken in a shaker at 300 RPM for 2 h at room temperature. A GF/C plate (Perkin Elmer, Cat No. 6055690) was prefoamed with 0.3% PEI, and the membrane proteins in the reaction solution were collected by filtration onto the GF/C plate. The signal values were read by a Perkin Elmer Microbeta2 instrument and the inhibition rate for each concentration point was shown as a percentage.

Structure (SMILES) | IC50 [nM]
O=C(OC1CCN(CCCn2nnc3cc(CNC[C@H](O)c4ccc(O)c5[nH]c(=O)ccc45)c4c(c32)CCC4)CC1)C(O)(c1ccc(Cl)s1)c1ccc(Cl)s1 | 5.57
O=C(OC1CCN(CCCn2nnc3cc(CNC[C@H](O)c4ccc(O)c5[nH]c(=O)ccc45)c4c(c32)CCC4)CC1)C(O)(c1cccs1)c1cccs1 | 1.11
